# Measured values: PMC7723054
# The other results are listed elsewhere or left out.
# B1: hsa-mir-302f (structured_RNA)
# RNA: GGGAGGAAGGUUAAAUGACGAUGCUCUUGGUGUACGAAGUUUCAGCAUUUUCACUUAAUGCUGAAGCUUCGUGCAC
# B2: hsa-mir-1302-1 (structured_RNA)
# RNA: GGGAGAAGAAUGUAUAGACCAGCGAAACGGUGUACGAAGUUUCAGCCCAUACAAUAUUUGGGCUGAAGCUUCGUGCAC
# B3: hsa-mir-518a-2 (structured_RNA)
# RNA: GGGAACGAAAUCAUAGGCGUAACACCCGGGUGUACGAAGUUUCAGCUUUCUGUUGUCUAAAAGAAGAGAAAGCUGAAGCUUCGUGCAC
# B4: hsa-mir-874 (structured_RNA)
# RNA: GGGAAGAGCUAAGGGUAGAACGUAUCUUGGUGUACGAAGUUUCAGCGUAAGAGAGACUCUCGCUUCCUGCGCUGAAGCUUCGUGCAC
# B5: hsa-mir-95 (structured_RNA)
# RNA: GGGAAGCGUUAAUGGGGCUAUUGCGGGAGGUGUACGAAGUUUCAGCUGAAUUGAAAUGCGUUACAUUCAGCUGAAGCUUCGUGCAC
# B6: hsa-mir-7153 (structured_RNA)
# RNA: GGGACGAAAGUUAGCCAACCGCGUAACAGGUGUACGAAGUUUCAGCUAGGUGGUCGAAGUCAUCCACAGCUGAAGCUUCGUGCAC
# B7: hsa-mir-506 (structured_RNA)
# RNA: GGGACGUUCCGUGAUACACCUUUGAGAAGGUGUACGAAGUUUCAGCCUUAAUAGAUUAAUAUUUGUAAGGCUGAAGCUUCGUGCAC
# B8: hsa-mir-302c (structured_RNA)
# RNA: GGGAACGUGGUUUGCUCCCAGGUCUACGGGUGUACGAAGUUUCAGCCCUGCUGUGUGAAACAAAAGUAAGGCUGAAGCUUCGUGCAC
# B9: hsa-mir-186 (structured_RNA)
# RNA: GGGAAAUAUUGUGCGCGCUAACGACAGUGGUGUACGAAGUUUCAGCGGGCUUUCUGGUUUUAUUUUAAGCCCGCUGAAGCUUCGUGCAC
# B10: hsa-mir-3189 (structured_RNA)
# RNA: GGGAAAGGCUUGUCGCUAACACCGUGUAGGUGUACGAAGUUUCAGCUGGGUAGGAAUAUCCUGGAUCCCCUGCUGAAGCUUCGUGCAC
# B11: hsa-mir-2054 (structured_RNA)
# RNA: GGGACGAAUGCUGCAGCCGAGAAUCUACGGUGUACGAAGUUUCAGCUAUUCUCUAUGCUGAAGCUUCGUGCAC
# B12: hsa-mir-6721 (structured_RNA)
# RNA: GGGACGGCUUUUAGGAGUCGUCUGGCUUGGUGUACGAAGUUUCAGCAGUCUCUGAAGAGAGCUGUGGACUGAGCUGAAGCUUCGUGCAC
# B13: hsa-mir-4672 (structured_RNA)
# RNA: GGGAAAUCAGCGACCCAGAGUGUAGCCUGGUGUACGAAGUUUCAGCGUGGCCUUGGACAAGCCUCUUGGUUACGCUGAAGCUUCGUGCAC
# B14: hsa-mir-4694 (structured_RNA)
# RNA: GGGAAAGAUCGAGGUUACAUCAAUGCCUGGUGUACGAAGUUUCAGCUUUGCCUCUCUCAGAAAAUAGAGUCAAAGCUGAAGCUUCGUGCAC
# B15: hsa-mir-616 (structured_RNA)
# RNA: GGGAAGGGAGCCCAAGAAAGCCGAUAGAGGUGUACGAAGUUUCAGCGACUUCCAUGACAUGAAAUAGGAAGUCGCUGAAGCUUCGUGCAC
# B16: hsa-mir-1289-2 (structured_RNA)
# RNA: GGGACUUAGACUAAGGGGUACGCCUUUAGGUGUACGAAGUUUCAGCCCUGCCUCAGAACUACUGAACAGAGUCACUGGGUGUGGAGCUGAAGCUUCGUGCAC
# B17: hsa-mir-15b (structured_RNA)
# RNA: GGGAAAUUACACGGAGCUAUGAACUAAGGGUGUACGAAGUUUCAGCUUUACAUGCUACAGUCAAGAUGCGAAGCUGAAGCUUCGUGCAC
# B18: hsa-mir-4496 (structured_RNA)
# RNA: GGGAGCGCGAAUACUAGCUAUCUCGGUCGGUGUACGAAGUUUCAGCCCUCGAAGCUGCCUUUAGAAAUGAGGGCUGAAGCUUCGUGCAC
# B19: NEAT1_ParasoR_ID17 (structured_RNA)
# RNA: GGGAAGGCUAAAGGAGGACUAACAUUCGGGUGUACGAAGUUUCAGCGUAAUGAUCAUCACUUUUCAUUAUGCUGAAGCUUCGUGCAC
# B20: hsa-mir-5011 (structured_RNA)
# RNA: GGGACACACUAUCUCGGUCGGAGAGUGAGGUGUACGAAGUUUCAGCGCACUCUGUAGUUUGGGUACACAGUGCGCUGAAGCUUCGUGCAC
# B21: hsa-mir-557 (structured_RNA)
# RNA: GGGAACGCUCAUGUGCGAAAGCCAUCAGGGUGUACGAAGUUUCAGCUGCUGGAGAAGUGUUUGCUGAAGCUUCGUGCAC
# B22: NEAT1_ParasoR_ID3 (structured_RNA)
# RNA: GGGACGUAAAUUCGGGGUUGACGAAACUGGUGUACGAAGUUUCAGCAAAAACCACAAACAUUAUUUUGUUCUUUUUGCUGAAGCUUCGUGCAC
# B23: hsa-mir-6823 (structured_RNA)
# RNA: GGGAGAAUAGCAGGGACACUGAAACGGAGGUGUACGAAGUUUCAGCUGCUGUUGCUGUGAAAGCUGAGCUGAAGCUUCGUGCAC
# B24: hsa-mir-9-1 (structured_RNA)
# RNA: GGGAGAAACGCCAUGGACCGGAACUUAAGGUGUACGAAGUUUCAGCGUAUGAGUGGUGUGGAGUCUUCAUAAGCUGAAGCUUCGUGCAC
# B25: hsa-mir-3657 (structured_RNA)
# RNA: GGGAAAGGGCUACGAGCAAAGACCCUAGGGUGUACGAAGUUUCAGCCACUAAUGUGAUUAAUGUUGUUGUGGCUGAAGCUUCGUGCAC
# B26: PARIS_ID5 (structured_RNA)
# RNA: GGGAUAAACGUCCUGGCAAGGAAUAAUCGGUGUACGAAGUUUCAGCGCACGUGCUGCCAAAAUAGAAUAAUGUUGGUCCUCUCCUCAUGUGCGCUGAAGCUUCGUGCAC
# Target: T1, LIN28A (human?, UniProt Q9H9Z2 1-209)
# T1 sequence: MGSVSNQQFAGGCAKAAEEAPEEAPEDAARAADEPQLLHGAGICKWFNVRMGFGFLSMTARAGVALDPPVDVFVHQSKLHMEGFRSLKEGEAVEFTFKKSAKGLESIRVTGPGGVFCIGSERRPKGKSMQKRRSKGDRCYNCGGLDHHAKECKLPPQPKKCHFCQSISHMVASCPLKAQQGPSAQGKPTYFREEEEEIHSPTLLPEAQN
# Test: FOREST: bead pull-down of RNA structure library v1, barcode microarray; U1A/LIN28A: 20 mM HEPES pH 7.5, 80 mM KCl, 20 mM NaCl, 10% glycerol, 2 mM DTT, 0.1 ug/uL BSA, 4 C; BG4/CIRBP/DHX36: 10 mM Tris-HCl pH 7.5, 100 mM KCl (or LiCl),; high values mean tight binding
row,Binder,binding signal [z-score]
1,B1,0.479
2,B2,0.477
3,B3,0.476
4,B4,0.475
5,B5,0.474
6,B6,0.468
7,B7,0.466
8,B8,0.465
9,B9,0.464
10,B10,0.462
11,B11,0.455
12,B12,0.445
13,B13,0.444
14,B14,0.433
15,B15,0.432
16,B16,0.431
17,B17,0.431
18,B18,0.428
19,B19,0.426
20,B20,0.425
21,B21,0.424
22,B22,0.422
23,B23,0.421
24,B24,0.416
25,B25,0.408
26,B26,0.405

# Target: T2, CIRBP (Homo sapiens, UniProt Q14011 1-172)
# T2 sequence: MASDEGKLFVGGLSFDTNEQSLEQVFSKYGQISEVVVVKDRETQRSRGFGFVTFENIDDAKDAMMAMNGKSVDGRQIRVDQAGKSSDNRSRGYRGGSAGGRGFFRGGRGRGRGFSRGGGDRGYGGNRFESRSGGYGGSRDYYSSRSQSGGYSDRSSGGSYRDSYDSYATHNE
# Test: as above
row,Binder,binding signal [z-score]
1,B1,1.52
2,B2,-0.283
3,B3,0.138
4,B4,1.53
5,B5,0.824
6,B6,0.708
7,B7,-0.269
8,B8,-0.0262
9,B9,0.616
10,B10,0.681
11,B11,0.489
12,B12,-3.27
13,B13,0.106
14,B14,1.07
15,B15,-0.195
16,B16,0.433
17,B17,0.0296
18,B18,0.491
19,B19,1.58
20,B20,-0.17
21,B21,0.528
22,B22,0.81
23,B23,1.45
24,B24,0.386
25,B25,-0.229
26,B26,0.535

# Target: T3, DHX36 (Homo sapiens, UniProt Q9H2U1 1-1008)
# T3 sequence: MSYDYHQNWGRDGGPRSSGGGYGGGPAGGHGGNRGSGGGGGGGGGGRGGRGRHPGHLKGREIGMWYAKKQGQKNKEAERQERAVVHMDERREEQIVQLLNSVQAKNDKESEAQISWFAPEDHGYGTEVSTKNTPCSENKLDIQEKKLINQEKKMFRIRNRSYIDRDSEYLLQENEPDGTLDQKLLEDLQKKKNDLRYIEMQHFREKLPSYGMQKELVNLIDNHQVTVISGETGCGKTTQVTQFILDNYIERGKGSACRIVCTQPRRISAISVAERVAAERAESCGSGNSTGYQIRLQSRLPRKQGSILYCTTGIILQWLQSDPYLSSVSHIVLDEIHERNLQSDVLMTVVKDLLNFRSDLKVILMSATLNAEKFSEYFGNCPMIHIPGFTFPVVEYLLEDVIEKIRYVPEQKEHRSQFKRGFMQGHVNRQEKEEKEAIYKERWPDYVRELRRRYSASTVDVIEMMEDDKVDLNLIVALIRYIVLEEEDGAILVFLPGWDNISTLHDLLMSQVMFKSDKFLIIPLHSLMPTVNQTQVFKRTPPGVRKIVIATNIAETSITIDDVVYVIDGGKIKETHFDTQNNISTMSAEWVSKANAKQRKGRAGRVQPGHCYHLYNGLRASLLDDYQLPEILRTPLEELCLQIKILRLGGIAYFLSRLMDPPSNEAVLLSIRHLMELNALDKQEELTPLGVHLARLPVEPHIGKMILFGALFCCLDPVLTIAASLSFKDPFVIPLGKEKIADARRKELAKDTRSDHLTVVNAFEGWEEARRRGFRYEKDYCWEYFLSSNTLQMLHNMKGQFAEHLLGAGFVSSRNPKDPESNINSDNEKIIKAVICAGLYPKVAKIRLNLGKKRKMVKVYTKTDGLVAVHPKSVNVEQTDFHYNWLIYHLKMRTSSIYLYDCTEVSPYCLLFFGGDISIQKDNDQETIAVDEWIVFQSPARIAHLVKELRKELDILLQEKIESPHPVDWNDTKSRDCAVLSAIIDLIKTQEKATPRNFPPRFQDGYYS
# Test: as above
row,Binder,binding signal [z-score]
1,B1,1.6
2,B2,-0.713
3,B3,0.353
4,B4,0.168
5,B5,-0.272
6,B6,0.367
7,B7,-0.844
8,B8,-0.951
9,B9,-0.647
10,B10,0.989
11,B11,-0.863
12,B12,-0.51
13,B13,-0.526
14,B14,0.256
15,B15,-0.357
16,B16,0.179
17,B17,-0.428
18,B18,0.0133
19,B19,0.793
20,B20,0.195
21,B21,-0.346
22,B22,-0.0659
23,B23,0.541
24,B24,-0.0238
25,B25,-0.64
26,B26,-1.02
